Screens: PubChem, National Center for Advancing Translational Sciences (NCATS)
The list is not random: actives were taken first. Their share in the collection is about 3.7%.
ClpP mod – qHTS Assay for Activators of ClpP; Potency, µM (titrated, usually from 57.5 µM), for the others: top-dose activity change, negative = active; hit rate 1.9% among 340,000; AID 651965, 2013; ATP-dependent Clp protease proteolytic subunit (Bacillus subtilis (strain 168)), P80244; purified B. subtilis ClpP, FRET peptide cleavage, 20 min; active means well fitted falling curve with a large enough effect; inconclusive means small, poorly fitted or top-dose-only effect; inactive means no such curve, though single readings can be large or run the other way; further: potency means the concentration at half of the fitted maximal effect; the source files actives as falling curves though it sought activators and does not explain the sign; nearly all actives have a fitted effect of over 65% in size
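ClpP 10 microg/mL final, pH 8 Tris/KCl buffer with BSA, glycerol, Tween-20; compound pinned in; FRET-FV substrate; RT 20 min; Ex320/Em430; ΔFRET vs ADEP 5.8 microM, DMSO, no enzyme.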
Nrf2 activator – Nrf2 pathway activation | hit rate 0.31% among 410,000 | Potency, µM (top dose mostly 46.1 µM), for the others: at the highest dose activation, usual class: activators | AREc32 ARE-luciferase reporter (MCF7-derived line), luminescence, 24 h | AID 624171; further: potency means the concentration at half of the fitted maximal effect; % of control where 0% means no effect; nearly all actives have a fitted effect of over 65% in size
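Luminescent ARE reporter assay in AREc32_Fluc cells: overnight plating at 37 deg C, 24 hr compound incubation, Steady-Glo added, 30 min RT before reading.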
TCR act – activators of T cell receptors; Potency, µM (titrated, usually from 9.22 µM), inactives show at the highest dose activation of IL-2 secretion, most hits filed as activators; primary human leukocytes, anti-CD3, IL-2 HTRF, 48 h; 330,000 tested, under 10 active; AID 504894; further: % of control where 0% means no effect
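Using a-CD3 beads without co-stimulation, primary human leukocytes were exposed to compounds for 48 hr. An HTRF IL-2 kit measured the cytokine, with europium-to-d2 energy transfer producing emission at 665nm upon 320nm excitation.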
miR-21 FLuc – raises the signal of a miR-21 reporter | Potency, µM (doses to about 38.3 µM), for inactives: top-dose reporter change, positive = more light | HeLa miR-21 FLuc reporter, luciferase, 48 h | AID 2288 | 340,000 tested, under 10 active; active = well fitted rising curve with a large enough effect; inconclusive = small, poorly fitted or top-dose-only effect; inactive = no such curve, though single readings can be large or run the other way;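 also: % of control where 0% means no effect; miR-21 action dims this reporter so a rising signal means less miR-21 action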
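HeLa miR-21-FLuc reporter line, endogenous miR-21; 2000 cells/well in DMEM/10% FBS; compound titration up to ~40uM final, 48 h, 37 degree Celsius; luciferase detection reagent, 15 min lysis, CCD luminescence.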
Nrf2 block – Nrf2 pathway inhibition; hit rate 2.1% among 360,000; A549 ARE-Fluc reporter, luciferase luminescence, 18-24 h; Potency, µM (doses to about 46 µM), without a hit: top-dose activity change, negative = inhibition, usual class: inhibitors; further: potency means the concentration at half of the fitted maximal effect; on the % scale 0 is the no-effect control and ±100 the full control effect; nearly all actives have a fitted effect of over 60% in size
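Quantitative HTS in A549 cells stably bearing an antioxidant response element-firefly luciferase construct. Inhibition of Nrf2-driven transcription was scored by luminescence after 18-24 h of compound exposure at 37 °C.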
A549 viability – kills or reduces viability of A549 cells in Nrf2 counter-screen. A549 ARE-Fluc cells, CellTiter-Fluor viability, 18-24 h. Potency, µM (top dose mostly 46 µM), without a hit: at the highest dose activity change, negative = cytotoxicity, actives largely listed as inhibitors. hit rate 0.16% among 390,000. AID 504648; further: potency means the concentration at half of the fitted maximal effect; on the % scale 0 is the no-effect control and ±100 the full control effect
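Cytotoxicity counterscreen: CellTiter-Fluor fluorescence was measured in A549 ARE_Fluc cells after 18-24 h of compound exposure in a concentration series. The subsequent BugLite luminescent read reports ARE-luciferase activity.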
* marks the source's active call; other numbers are inactive results; ? = inconclusive; . = no result given; [ ] = remark or other dose. Unless noted, the call rests on the fitted dose curve; in most records, active means well fitted curve in the direction sought with a large enough effect; inconclusive means small, poorly fitted or top-dose-only effect, or another doubt; inactive means no such curve, though single readings can be large; an effect the other way counts as inactive or inconclusive.

Fields: ClpP mod	Nrf2 activator	TCR act	miR-21 FLuc	Nrf2 block	A549 viability
[1] COc1cc2ncnc(N(C)Cc3csc(C)n3)c2cc1-c1ccc2c(c1)OCO2
 : .	.	.	.	?	0%
[2] COc1ccc(-c2ccc3ncnc(N(C)Cc4csc(C)n4)c3c2)cc1OC
 : .	.	.	.	3.7µM*	-15%
[3] O=C(c1ccccc1O)N(Cc1ccccc1)Cc1cccs1
 : .	.	.	.	18%	2%
[4] COc1cccc(NC(=O)Cn2c(=O)n(-c3ccc(Cl)cc3)c(=O)c3sc4ccccc4c32)c1
 : 32µM*	0%	.	-19%	9%	-10%
[5] O=C(NC(=S)Nc1ccccc1)C1CCCCC1
 : 0%	0%	3%	12%	?	8%
[6] O=C(NC(=S)NCc1ccccc1)C1CCCCC1
 : 13µM*	0%	0%	-8%	.	15%
[7] O=[N+]([O-])c1cccnc1N1CCC(c2cc(-c3cccc(C(F)(F)F)c3)n[nH]2)CC1
 : -1%	-1%	-3%	18%	21µM*	?
[8] CC(=O)c1ccc(N2CCN(c3ccccc3O)CC2)c([N+](=O)[O-])c1
 : .	5%	-10%	1%	-22%	1%
[9] CC(=O)c1ccc(N2CCC(c3cc(-c4ccc(Cl)cc4Cl)n[nH]3)CC2)c([N+](=O)[O-])c1
 : 1%	-1%	3%	11%	16µM*	?
[10] O=[N+]([O-])c1cccnc1N1CCC(c2cc(-c3ccc(Cl)cc3Cl)n[nH]2)CC1
 : -3%	-1%	-53%	9%	18µM*	?
[11] COc1ccccc1/C=C/C(=O)OC(C)CN1CCCCC1 (stereo unspecified)
 : -1%	-1%	.	-2%	-28%	0%
[12] O=C(NCCc1ccccc1)C1CCN(Cc2cccc3ccccc23)CC1
 : 16µM*	0%	3%	-2%	6%	-6%
[13] Cc1ccnc(NC(=O)CNC(=O)Cc2cccc3ccccc23)c1
 : .	8%	-2%	.	?	2%
[14] CCCc1cc(=O)oc2c3c(cc(OCC(=O)NCc4ccncc4)c12)OC(C)(C)CC3
 : 4%	1%	-1%	0%	12µM*	?
[15] CCN(CC)c1ccc(C(=C2C=CC(=[N+](CC)CC)C=C2)c2ccc(N(CC)CC)cc2)cc1
 : 2%	-3%	39%	.	5.8µM*	7.3µM*
[16] CCc1ccc(CCC(=O)N2CCN(S(=O)(=O)c3ccc(Br)cc3)CC2)cc1
 : -2%	1%	.	.	.	.
[17] COCc1cc(C)nc(OCC(=O)N/N=C/c2cccc(OC)c2)c1C#N
 : 28µM*	-1%	-8%	1%	-7%	-4%
[18] COCc1cc(C)nc(OCC(=O)N/N=C/c2ccccc2O)c1C#N
 : .	-1%	1%	11%	1%	-3%
[19] O=C(O)CCc1nn2c3ccccc3n(CCO)c2nc1=O
 : .	-1%	-7%	1%	-10%	5%
[20] O=C(O)CCc1nn2c3ccccc3n(CCN3CCCCC3)c2nc1=O
 : 28µM*	0%	-1%	1%	.	1%

Complete entries as entered above:
CCN(CC)c1ccc(C(=C2C=CC(=[N+](CC)CC)C=C2)c2ccc(N(CC)CC)cc2)cc1 across the screens: ClpP mod: 2%; Nrf2 activator: -3%; TCR act: 39%; miR-21 FLuc: .; Nrf2 block: 5.8µM*; A549 viability: 7.3µM*
O=C(NCCc1ccccc1)C1CCN(Cc2cccc3ccccc23)CC1 across the screens: ClpP mod: 16µM*; Nrf2 activator: 0%; TCR act: 3%; miR-21 FLuc: -2%; Nrf2 block: 6%; A549 viability: -6%

(listing goes on)
cpd	SMILES	ClpP mod	Nrf2 activator	TCR act	miR-21 FLuc	Nrf2 block	A549 viability
21	COc1ccc(N(CC(=O)Nc2cccc(C)c2)S(=O)(=O)c2c(C)noc2C)cc1	1%	-1%	-11%	2%	?	-6%
22	CCOc1ccc(N(CC(=O)Nc2ccc(C)c(C)c2)S(=O)(=O)c2c(C)noc2C)cc1	-5%	0%	-4%[46.1 µM]	28%	13µM*	-12%
23	CCOc1ccc(N(CC(=O)Nc2cccc(F)c2)S(=O)(=O)c2c(C)noc2C)cc1	-3%	-1%	2%	8%	13µM*	-16%
24	CCOc1ccc(N(CC(=O)Nc2ccccc2C)S(=O)(=O)c2c(C)noc2C)cc1	0%	-2%	-3%	21%	27%	1%
25	CN(C#N)c1nc(N2CCOCC2)nc(N2CCOCC2)n1	-3%	-1%	-5%	.	?	-3%
26	CCN(CC)c1nc(C#N)nc(N2CCOCC2)n1	1%	.	.	.	23µM*	-3%
27	COc1ccc(S(=O)(=O)N2CCC(C(=O)NCCC(=O)NCc3ccccn3)CC2)cc1	0%	0%	.	.	.	.
